Measured values published in ChEMBL document CHEMBL4020815 (J Med Chem, 2017).

Protein sequences, listed by entry. Tags and fused reporters are not part of them. Lines headed by an entry give the natural chain unless they say otherwise; changes in a name come on top.
UniProt P31939: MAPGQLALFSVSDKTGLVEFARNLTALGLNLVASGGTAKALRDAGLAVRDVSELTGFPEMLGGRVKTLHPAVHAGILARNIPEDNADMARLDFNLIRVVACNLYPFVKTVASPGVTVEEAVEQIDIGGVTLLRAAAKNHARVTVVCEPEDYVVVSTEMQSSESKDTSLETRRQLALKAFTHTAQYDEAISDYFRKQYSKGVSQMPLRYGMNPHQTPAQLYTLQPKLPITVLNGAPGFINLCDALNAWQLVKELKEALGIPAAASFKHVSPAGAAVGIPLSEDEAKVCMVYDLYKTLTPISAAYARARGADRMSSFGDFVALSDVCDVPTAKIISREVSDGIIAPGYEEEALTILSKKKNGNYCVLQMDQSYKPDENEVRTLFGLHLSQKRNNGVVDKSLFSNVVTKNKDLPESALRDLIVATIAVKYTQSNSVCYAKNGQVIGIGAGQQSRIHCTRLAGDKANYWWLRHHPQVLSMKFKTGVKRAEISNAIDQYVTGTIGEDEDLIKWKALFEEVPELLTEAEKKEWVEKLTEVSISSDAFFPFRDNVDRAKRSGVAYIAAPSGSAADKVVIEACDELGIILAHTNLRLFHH

Tests used:
[1] = molecular target: T1, Bifunctional purine biosynthesis protein ATIC (Homo sapiens, UniProt P31939); experiment: Inhibition of AICARFT in human MDA-MB-231 cells assessed as increase in ZMP levels using regular folate media after 16 hrs by LC-MS method; format: cell-based
[2] = Antiproliferative activity against human MDA-MB-231met2 cells by Cell Titer-Glo assay; format: functional, cell-based
[3] = molecular target: T1, Bifunctional purine biosynthesis protein ATIC; experiment: Inhibition of AICARFT in human MDA-MB-231 cells assessed as increase in ZMP levels using low folate media after 16 hrs by LC-MS method; format: cell-based
[4] = molecular target: T1, Bifunctional purine biosynthesis protein ATIC; experiment: Inhibition of AICARFT in human NCI-H460 cells assessed as increase in ZMP levels using regular folate media after 16 hrs by LC-MS method; format: cell-based
[5] = molecular target: T1, Bifunctional purine biosynthesis protein ATIC; experiment: Inhibition of AICARFT in human NCI-H460 cells assessed as increase in ZMP levels using low folate media after 16 hrs by LC-MS method; format: cell-based

EC50 [5] [nM] | SMILES | EC50 [1] [nM] | IC50 [2] [nM] | EC50 [3] [nM] | EC50 [4] [nM]
 | O=c1[nH]ccc2cc(F)c(NS(=O)(=O)c3ccc(N4CC[C@@H](O)C4)s3)cc12 | 73 | 7.6 | 7.6 | 356
25 | O=c1[nH]ccc2cc(F)c(NS(=O)(=O)c3ccc(N4CC[C@H](O)C4)s3)cc12 |  |  |  | 
